Reference: article PMC9434700 (Journal of medicinal chemistry, 2022)

Tested on: other mGluRs (mGluR1, mGluR4, mGluR5, mGluR6, mGluR8)
Details: read-out: other mGluRs EC5, see the Supporting Information

Work on `O=C(c1cnc2c(cnn2CC2CC2)c1C(F)(F)F)N1CCN(c2ccc(F)cc2F)CC1` [Compound 13, (1-(Cyclopropylmethyl)-4-(trifluoromethyl)-1H-pyrazolo[3,4-b]-pyridin-5-yl) (4-(2,4-difluorophenyl)piperazin-1-yl)methanone] yielded an EC50 greater than 1 µM.
